## Experimental water solubility values from OPERA 2.9

From the experimental data distributed with OPERA 2.9.

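These are experimental values that the OPERA curators gathered from public databases to train and test their QSAR models. A listed value is a point estimate from one report or more. How each value was measured is not recorded, so precision varies. A value may pool stereoisomers or salt forms, and the file does not say which form was measured. Unmarked limits or estimates from the upstream databases cannot be ruled out.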

Water solubility is log10 of mol/L, nominally at 25 °C; higher is more soluble.

Listed for CN(C)C(=O)Nc1cccc(F)c1: log S -1.699 (log10 mol/L).
Listed for C=CCCCCCCCCCCCCCCCC: log S -9.823 (log10 mol/L).
Listed for OCCOCc1ccccc1: log S -0.664 (log10 mol/L).
Listed for CO/N=C(/C(=O)OC)c1ccccc1CCl: log S -2.815 (log10 mol/L).
Listed for CC(C)(C)[C@@H](NC=O)C(=O)O: log S -1.901 (log10 mol/L).
Listed for COC(=O)C(N)Cc1cc(I)c(Oc2cc(I)c(O)c(I)c2)c(I)c1 (stereo not given): log S -3.668 (log10 mol/L).
Listed for Cc1ccc(S(=O)(=O)NC(=O)Nc2cccc(OS(=O)(=O)c3ccc(C)cc3)c2)cc1: log S -4.123 (log10 mol/L).
Listed for O=C(OCC1CO1)c1ccc(C(=O)OCC2CO2)cc1 (stereo not given): log S -3.558 (log10 mol/L).
Listed for CCOC(=O)c1cc([N+](=O)[O-])cc([N+](=O)[O-])c1: log S -3.01 (log10 mol/L).
Listed for CC(C)C1=CC(=O)C(C)CC1 (stereo not given): log S -1.844 (log10 mol/L).
Listed for CCC(=O)CC(C)(C)c1ccccc1: log S -3.302 (log10 mol/L).
Listed for O=c1c2ccccc2c2ccc3sc4ccccc4c4ccc1c2c34: log S -7.983 (log10 mol/L).
Listed for Nc1cccc(OC2(Oc3cccc(N)c3)C=CC(c3ccccc3)=CC2)c1: log S -8.268 (log10 mol/L).
Listed for O=c1cc(O)c2ccccc2[nH]1: log S -3.792 (log10 mol/L).
Listed for CCCC1CCCNC1 (stereo not given): log S -1.008 (log10 mol/L).
Listed for CS(=O)(=O)c1ccc(F)c(C(=O)O)c1: log S -1.944 (log10 mol/L).
Listed for Cc1cc(=S)n(C)n1-c1ccccc1: log S -1.667 (log10 mol/L).
Listed for CCOC(=O)C1CCC(C)CC1=O (stereo not given): log S -1.857 (log10 mol/L).
Listed for CCOC(=O)c1ccc(O)c(O)c1: log S -1.856 (log10 mol/L).
Listed for O=C(N/N=C/C=C/c1ccc([N+](=O)[O-])o1)Nc1ccccc1: log S -4.088 (log10 mol/L).
Listed for CCCCCCCCCCCCCCCCCCN(C)C: log S -4.628 (log10 mol/L).
Listed for CCOC(=O)[C@@H]1[C@@H](C(C)C)[C@@H]2C=C[C@H]1C2: log S -4.104 (log10 mol/L).
Listed for O=C(O)CNCC(=O)O: log S -0.739 (log10 mol/L).
Listed for CC(C)CCCCCCCCCCCCCCC(=O)OCC(O)COCC(O)COC(=O)CCCCCCCCCCCCCCC(C)C (stereo not given): log S -5.367 (log10 mol/L).
Listed for CCCCc1ccc(Br)cc1: log S -5.675 (log10 mol/L).
Listed for COc1ccc(C(Cl)(c2ccccc2)c2ccc(OC)cc2)cc1: log S -5.053 (log10 mol/L).
Listed for CCCCC(CC)CNc1ccc2ccccc2c1N=Nc1ccc(N=Nc2cccc(C)c2)c(C)c1 (stereo not given): log S -8.215 (log10 mol/L).
Listed for Fc1ccc(C(F)(F)F)cc1Cl: log S -3.672 (log10 mol/L).
Listed for CC1(C)Nc2cccc3cccc(c23)N1: log S -2.93 (log10 mol/L).
Listed for CCOC(=O)c1ccc([N+](=O)[O-])cc1: log S -3 (log10 mol/L).
Listed for CCN(CC)C(=O)C(C)OC(=O)c1ccccc1 (stereo not given): log S -2.281 (log10 mol/L).
Listed for CC(=O)CC(=O)OC1CCCCC1: log S -2.904 (log10 mol/L).
Listed for CC1=CCC(=O)O1: log S -0.293 (log10 mol/L).
Listed for CCCCCC1CCC(C2CCC(c3ccc(OCC)c(F)c3F)CC2)CC1 (stereo not given): log S -6.895 (log10 mol/L).
Listed for COC(=O)CCCCCCCCCCCCCCCCC(=O)OC: log S -8.745 (log10 mol/L).
Listed for NC(=O)CCC(N)=O: log S -1.546 (log10 mol/L).
Listed for CCO/C=C1\N=C(c2ccccc2)OC1=O: log S -2.072 (log10 mol/L).

Repeated from above, the 3 entries with the highest log S:

CC1=CCC(=O)O1 is reported with log S -0.293 (log10 mol/L).
OCCOCc1ccccc1 is reported with log S -0.664 (log10 mol/L).
O=C(O)CNCC(=O)O is reported with log S -0.739 (log10 mol/L).